# Results published in paper PMC8113290, “[^11C]MODAG-001—towards a PET tracer targeting α-synuclein aggregates” (European Journal of Nuclear Medicine and Molecular Imaging, 2020).
# Amino acid sequences for entries named in this document (tags omitted). Residues count along the entry.
# UniProt P10636, 1-412 isoform 7: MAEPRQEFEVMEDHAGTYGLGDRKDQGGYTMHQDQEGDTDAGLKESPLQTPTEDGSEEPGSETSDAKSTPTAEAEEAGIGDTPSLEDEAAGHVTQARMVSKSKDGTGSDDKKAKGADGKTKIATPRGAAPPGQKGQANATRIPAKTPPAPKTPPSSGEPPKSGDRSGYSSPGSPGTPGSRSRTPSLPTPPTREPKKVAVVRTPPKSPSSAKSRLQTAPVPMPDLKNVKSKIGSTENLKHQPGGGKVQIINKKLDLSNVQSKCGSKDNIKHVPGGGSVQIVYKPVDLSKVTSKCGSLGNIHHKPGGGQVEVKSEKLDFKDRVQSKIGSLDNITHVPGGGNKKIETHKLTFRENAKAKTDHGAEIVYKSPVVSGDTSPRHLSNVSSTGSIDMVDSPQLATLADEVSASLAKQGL
# UniProt P05067, 672-713 limits assumed: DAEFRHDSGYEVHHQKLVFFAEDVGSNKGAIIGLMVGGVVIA
# Tests used:
# [1] = tested on: human brain sections (cortex) of LBD, PSP, AD and control cases; test: In vitro autoradiography in human brain tissue sections; details: 3 nM tracer, tested as the radiolabelled form
# [2] = biological target: human recombinant αSYN fibrils (Homo sapiens, UniProt P37840); test: Saturation binding assay of [3H]MODAG-001 on recombinant αSYN fibrils; details: tested as the radiolabelled form
# hTau46 fibrils = hTau46 fibrils (Homo sapiens, UniProt P10636); test: Saturation binding assay of [3H]MODAG-001 on recombinant hTau46 fibrils; details: tested as the radiolabelled form
# Aβ1–42 fibrils [3] = test: Saturation binding assay of [3H]MODAG-001 on Aβ1–42 fibrils; details: tested as the radiolabelled form
# Aβ1–42 fibrils [4] = biological target: Aβ1–42 fibrils (Homo sapiens, UniProt P05067); test: as above; details: tested as the radiolabelled form
# [5] = biological target: recombinant α-synuclein (αSYN) fibrils in mouse brain homogenates (Homo sapiens, UniProt P37840); test: Sensitivity analysis: saturation binding in mouse brain homogenates spiked with αSYN fibrils; details: tested as the radiolabelled form
smiles,measurement,setting,value
CN(C)c1ccc(-c2cc(-c3ccnc(Br)c3)n[nH]2)cc1,"specific tracer binding, autoradiography",[1]; AD case,167.7 ± 40.0 pmol/mg
same,"specific tracer binding, autoradiography",[1]; LBD 1 case,80.5 ± 8.7 pmol/mg
same,"specific tracer binding, autoradiography",[1]; LBD 2 case,64.4 ± 9.8 pmol/mg
same,"specific tracer binding, autoradiography",[1]; PSP case,79.0 ± 13.3 pmol/mg
same,"specific tracer binding, autoradiography",[1]; control case,64.1 ± 19.1 pmol/mg
same,Kd,"[2]; αSYN fibrils 15 nM, saturation binding",0.6 nM
same,Bmax,[2]; αSYN fibrils,9.7 ± 0.4 pmol/nmol
same,Kd,"hTau46 fibrils; hTau46 fibrils 250 nM, saturation binding",19 nM
same,Bmax,hTau46 fibrils; hTau46 fibrils,1.5 ± 0.4 pmol/nmol
same,lower affinity towards hTau46 fibrils compared to αSYN fibrils (selectivity),hTau46 fibrils; hTau46 vs αSYN fibrils,30 fold
same,Bmax higher for αSYN fibrils than for hTau46 fibrils,hTau46 fibrils; αSYN vs hTau46 fibrils,7 fold
same,lower affinity towards Aβ1–42 fibrils compared to αSYN fibrils (selectivity),Aβ1–42 fibrils [3]; Aβ1–42 vs αSYN fibrils,30 fold
same,Bmax higher for αSYN fibrils than for Aβ1–42 fibrils,Aβ1–42 fibrils [3]; αSYN vs Aβ1–42 fibrils,50 fold
same,Kd,"Aβ1–42 fibrils [4]; Aβ1–42 fibrils 1 μM, saturation binding",20 nM
same,Bmax,Aβ1–42 fibrils [4]; Aβ1–42 fibrils,0.2 ± 0.1 pmol/nmol
same,limit of detection of αSYN fibrils (αSYN concentration at which specific binding can still be calculated),[5]; 100 μg protein/mL mouse brain homogenate,5 nM
same,specific binding (SB),"[5]; 500 μg protein/mL homogenate, 5 nM fibrils",undetectable
